# Apparent affinities of Ab-14 variants for a coronavirus HR2 peptide

Reference: Li et al. 2023, doi:10.1038/s41467-023-39022-2. File: FLAb, binding data.

Binding partner: SARS-CoV-2 spike HR2 peptide, sequence PDVDLGDISGINAS.

Parent: Ab-14, a human scFv built as VH, a 15-residue (Gly4Ser)3 linker, VL. Only the CDRs of the heavy chain vary.
VH: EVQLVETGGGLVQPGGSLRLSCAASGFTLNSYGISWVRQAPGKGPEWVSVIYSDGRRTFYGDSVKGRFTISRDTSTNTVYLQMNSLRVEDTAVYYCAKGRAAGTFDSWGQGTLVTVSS
VL: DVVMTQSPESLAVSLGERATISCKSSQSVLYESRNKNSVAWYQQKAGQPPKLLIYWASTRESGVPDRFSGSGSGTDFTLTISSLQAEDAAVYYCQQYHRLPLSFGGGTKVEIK

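These sequences belong to a second round, designed from the earlier measurements on random variants of the parent. Several design methods are mixed in this list. The scFvs were displayed on barcoded MATa yeast, the peptide on MATalpha yeast. The frequency of each diploid, read from paired DNA barcodes, reflects how well the two displayed proteins bind. Scores were corrected for input abundance and mapped to Kd with protein pairs of known affinity run in the same pool. There are six technical replicates.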

The parent's heavy chain CDRs are GFTLNSYGIS, VIYSDGRRTFYGDSVK, GRAAGTFDS; each variant's own CDRs replace them letter for letter. The Kd shown is the geometric mean over detected replicates; a lower Kd is a better binder. An entry "no signal" has no value in the source: the pair was not observed among the diploids in any replicate. This suggests poor binding but is not conclusive. The parent sequence was in this pool as ten entries: three were never detected, three once, and four in most replicates, with averages from 2.2 nM to 240 nM. The range of this assay differs from that of the first round, and the authors advise against merging the two. The authors' rule: three or more of the six replicates give a measured affinity, fewer mean a poor binder. Nonspecific signal, from three strains lacking the peptide, appeared in 1% of pairings of all heavy chain designs, centred on 120 nM (5% of these signals below 7.0 nM); values are not corrected for it.

CDR-H1 | CDR-H2 | CDR-H3 | Kd (apparent) | replicates with signal
LFSLNSYGIS | VIYSDGRRTFYIDSVR | IRAAVTWDS | no signal | 0/6
GFSLNSYGIS | VIYSDGRRTFYGDAVK | GQAAGTFDS | 720 pM | 3/6
GFHLDEYGIS | VIYADGKRVAYTNHVK | GELEGGFVI | no signal | 0/6
GFTLNSYGIS | VIYSDGRRTFYGDAVK | GREAGTFTS | 5.0 nM | 6/6
GFDLNEYGIS | VIYADGVRTYYADSVK | GTNAGTFDV | 280 pM | 6/6
GFDLDEYGIS | VIYADGSRTAYIDSVK | GNVAGTFDV | 750 pM | 6/6
GFDLNEYGIS | VIYADGKRTFYSDSVK | GEVAGTFDQ | 240 pM | 6/6
GFTLNSYGIS | VIYSDGRRTFYGPSVK | GRQAGTPDS | 11 nM | 1/6
GFDLNEYGIS | VIYADGQRTAYADKVK | GNQAGTFDV | 360 pM | 6/6
GFDLNEYGIS | VIYADGQRTFYADSVK | GNQAGTFDQ | 630 pM | 6/6
GFDLNEYGIS | VIYADGRRTAYSDSVK | GHIAGTFIQ | 900 pM | 6/6
GFKLDEYGIS | VIYADGSRTEYVQSVK | GDTSVIKFV | 24 nM | 4/6
GFDLNEYGIS | VIYADGRRTFYTDSVK | GQIAGTFDQ | 220 pM | 6/6
GFDLNSYGIS | VIYSDGRRTFYGDSVK | GRAAGTSIS | 72 nM | 1/6
GFTLNNYGIS | VIYADGRRTFYGDSVK | GRAALTFDS | no signal | 0/6
GFTENQYGIS | VNYSDGRRTFYSDSVK | GTAAGFFSS | no signal | 0/6
GFTLNSYGIS | VIYSDGRRTFYGDSFK | GRAAGTFNS | no signal | 0/6
GFDLDEYGIS | VIYADGRRTFYADSVK | GNSAGTFDS | 400 pM | 6/6
GFELNSYGIS | VIYSDGRRTFYGDQVK | GKTAGTFDS | 2.6 nM | 6/6
GFSLNSYGIS | VIYSDGRRTFYADRVK | GQAAGTFDS | 7.9 nM | 6/6
GFTLNDYGIS | VIYADGRRTFYGDSVK | GRAKGTFDV | 420 nM | 1/6
GFSLNDYGIS | VIYSDGRRTFYGDSVK | GRAALTFDL | no signal | 0/6
GFDLQEYGIS | VIYADGKRTKVTDNVK | GTVTGTAFT | no signal | 0/6
GFTLSSYGIS | VIYSDGRRTYYGDKVK | GAAAGTADS | no signal | 0/6
GFSLNEYGIS | VIYSDGRRTFYGDSVK | GRAPGTFDS | 4.7 nM | 6/6
GFTLNDKGIS | VIYSDGRRTVYGDSVK | GRAALTFIS | no signal | 0/6
GFDLNEYGIS | VIYADGMRTAYSDDVK | GNNAGTFDL | 810 pM | 6/6
GFDLNEYGIS | VIYADGQRTAYADSVK | GKLAGTFDS | 270 pM | 6/6
GFTLNSYGIS | VIYSDGRRTFYLDSVK | GRHAGTFDS | no signal | 0/6
GFELNSYGIS | VIYADGRRTFYGDSVK | GKAAGTFDL | 820 pM | 6/6
GFSLNSYGIS | VIYSDGRRTFYGDAVK | RRTAGTFDS | no signal | 0/6
GFDLNEYGIS | VIYADGMRTSYADDVK | GNVAGTFDV | 270 pM | 6/6
GFSLNMYGIS | VIYSDGRRTQYSDSVK | GRAAGTFDS | 19 nM | 6/6
GFDLNEYGIS | VIYADGRRTAYSDSVK | GEVGGTFDV | 720 pM | 6/6
GFSLNSYGIS | VIYADGRRTFYGDSVK | GQAAGTFDQ | 840 pM | 6/6
GTTINSYGIS | VIYSDGRRTFYSDSVK | GRAAGTFDS | 36 nM | 2/6
GFTLNSYGIS | VIYSDGMRTFYGDSVK | GTAADTFDS | no signal | 0/6
GFNLNSYGIS | VIYSDGERTFYGDSVK | GRAAGTFDS | 8.3 nM | 5/6
GFDLDEYGIS | VIYADGKRTAYADNVK | GEVAGTFDT | 340 pM | 6/6
GFDLNEYGIS | VIYADGMRTFYSDSVK | GEIAGTFDV | 270 pM | 6/6
GFDLNEYGIS | VIYADGMRTQYADSVK | GNTAGTFDV | 440 pM | 6/6
GFTLNEYGIS | VIYSDGRRTFYSDSVK | GPAAGTFDS | no signal | 0/6
GFELNSYGIS | VIYSDGRRTFYDDSVK | GRQAGTFDS | 20 nM | 6/6
GFTLNEYGIS | VIYSDGMRTFYSDSVK | GRAAGRFDS | no signal | 0/6
GNLLDEYGIS | VIYADGKRTAYSDDVK | DVGSNVLVD | no signal | 0/6
GFELNSYGIS | VIYSDGKRTFYADDVK | GRQAGTFDS | 39 nM | 6/6
GFDLDEYGIS | VIYADGRRTAYADSVK | GANAGTFDV | 730 pM | 6/6
GFTLDLYGIS | VIYSDGRRTFYGDSVK | GRLAGTFDS | 2.0 nM | 6/6